The record followed here is PubChem BioAssay AID686952 (The Scripps Research Institute Molecular Screening Center, 2013).

The list shows a part of the results, in another mix than the full data. Active and inactive are the calls of the source.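 The calls were made as follows: active = activation above the all-compound mean plus 3 SD, ignoring values outside control-based bounds (cut at about 4.8% in these data); inactive = the rest.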

This test in a line: EDANS-DABCYL substrate optical interference, artefact control for kallikrein-7 zymogen activator project, biochemical, fluorescence intensity, high throughput (AID 686952).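 Also: value is the 4 h activation minus the activation read at time zero.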 The settings on record: no enzyme, 4 h, at 7 µM, stronger effect = higher value, solvent 0%, active enzyme control 100%.
Take `Nc1ccc2c(ccc3cccnc32)n1.O=[N+]([O-])c1cc([N+](=O)[O-])c(O)c([N+](=O)[O-])c1`: the activation was active: 7.53%.
